Assays:
[1] = target: T1, CRF1R (Homo sapiens, UniProt P34998); assay: CRF1R agonist activation (EC50 / Emax), called comparative CRF binding; format: cell-based; settings: for Emax: read-out: CRF1R Emax; for EC50: CRF1R EC50
T1 sequence (P34998 24-415): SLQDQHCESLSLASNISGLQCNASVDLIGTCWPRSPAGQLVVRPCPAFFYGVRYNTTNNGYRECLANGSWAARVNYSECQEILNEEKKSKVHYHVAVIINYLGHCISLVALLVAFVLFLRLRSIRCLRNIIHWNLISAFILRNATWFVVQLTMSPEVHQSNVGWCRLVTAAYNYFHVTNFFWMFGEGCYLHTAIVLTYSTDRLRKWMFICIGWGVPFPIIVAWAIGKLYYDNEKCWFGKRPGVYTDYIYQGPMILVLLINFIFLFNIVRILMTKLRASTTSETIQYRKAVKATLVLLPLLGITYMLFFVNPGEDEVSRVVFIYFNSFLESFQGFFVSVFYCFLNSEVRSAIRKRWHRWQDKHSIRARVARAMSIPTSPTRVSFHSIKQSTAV
Outline: (§1)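 Receptor-expressing cells are contacted with test peptide or the vehicle it is dissolved in. Lysates are then assayed for cAMP, or expression of a CRE-coupled reporter is quantitated. Engineered cells carrying receptor-G-protein fusions may replace full-length receptors.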

[2] = target: T2, CRF2R (Homo sapiens, UniProt Q13324); assay: CRF2R agonist activation (EC50 / Emax), called comparative CRF binding; format: cell-based; settings: for Emax: read-out: CRF2R Emax
T2 sequence (Q13324 1-411): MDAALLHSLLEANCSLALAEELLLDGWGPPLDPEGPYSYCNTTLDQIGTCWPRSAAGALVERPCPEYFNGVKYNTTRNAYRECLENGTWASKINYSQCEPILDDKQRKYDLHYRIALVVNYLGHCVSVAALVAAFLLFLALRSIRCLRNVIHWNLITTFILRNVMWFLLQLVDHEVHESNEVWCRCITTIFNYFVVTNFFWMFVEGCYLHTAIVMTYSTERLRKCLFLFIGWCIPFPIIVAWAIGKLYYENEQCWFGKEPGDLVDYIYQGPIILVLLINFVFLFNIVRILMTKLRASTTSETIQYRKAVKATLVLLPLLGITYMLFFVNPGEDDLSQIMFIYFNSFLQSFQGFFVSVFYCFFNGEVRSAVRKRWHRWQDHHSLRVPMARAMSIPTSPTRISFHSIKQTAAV
Outline: as §1

Row | SMILES | Emax [1] | Emax [2] | EC50 [1] | EC50 [2]
1 | CC[C@H](C)[C@H](NC(=O)[C@@H](NC(=O)[C@H](CC(=O)O)NC(=O)[C@H](CC(C)C)NC(=O)[C@H](CC(C)C)NC(=O)[C@H](CC(C)C)NC(=O)[C@H](CCCNC(=N)N)NC(=O)[C@H](CC(N)=O)NC(=O)[C@H](CC(N)=O)NC(=O)[C@H](C)NC(=O)[C@H](C)NC(=O)[C@H](CCC(N)=O)NC(=O)[C@H](CCC(N)=O)NC(=O)[C@H](CCCCN)NC(=O)[C@H](CCC(=O)O)NC(=O)[C@H](CCCCN)NC(=O)[C@H](CCC(=O)O)NC(=O)[C@H](CCC(N)=O)NC(=O)[C@H](CCCCN)NC(=O)[C@H](CCC(=O)O)NC(=O)[C@@H](NC(=O)[C@H](CCC(=O)O)NC(=O)[C@@H](NC(=O)[C@H](CCSC)NC(=O)[C@H](CCCCN)NC(=O)[C@H](CCCNC(=N)N)NC(=O)[C@H](CC(C)C)NC(=O)[C@H](CC(C)C)NC(=O)[C@H](Cc1ccc(O)cc1)NC(=O)[C@@H](NC(=O)[C@@H]1CCCN1C(=O)[C@H](CC(C)C)NC(=O)[C@H](CC(=O)O)NC(=O)[C@@H](NC(=O)[C@H](CO)NC(=O)[C@@H](NC(=O)[C@@H]1CCCN1C(=O)[C@@H]1CCCN1C(=O)CNC(=O)[C@@H]1CCC(=O)N1)[C@@H](C)CC)[C@@H](C)CC)C(C)C)[C@@H](C)CC)[C@@H](C)CC)[C@@H](C)O)C(N)=O [compound 39] | 63% | 94% | – | –
2 | CC[C@H](C)[C@H](NC(=O)[C@@H](NC(=O)[C@H](CC(=O)O)NC(=O)[C@H](CC(C)C)NC(=O)[C@H](CC(C)C)NC(=O)[C@H](CCCNC(=N)N)NC(=O)[C@H](C)NC(=O)[C@H](CC(N)=O)NC(=O)[C@H](CC(N)=O)NC(=O)[C@H](C)NC(=O)[C@H](C)NC(=O)[C@H](CCC(N)=O)NC(=O)[C@H](CCC(N)=O)NC(=O)[C@H](CCCCN)NC(=O)[C@H](CCC(=O)O)NC(=O)[C@H](CCCCN)NC(=O)[C@H](CCC(=O)O)NC(=O)[C@H](CCC(N)=O)NC(=O)[C@H](CCCCN)NC(=O)[C@H](CCC(=O)O)NC(=O)[C@@H](NC(=O)[C@H](CCC(=O)O)NC(=O)[C@@H](NC(=O)[C@@H](NC(=O)[C@H](CCCCN)NC(=O)[C@H](CCCNC(=N)N)NC(=O)[C@H](CC(C)C)NC(=O)[C@H](CC(C)C)NC(=O)[C@H](Cc1c[nH]c2ccccc12)NC(=O)[C@H](Cc1ccc(O)cc1)NC(=O)[C@@H]1CCCN1C(=O)[C@@H](NC(=O)[C@H](CC(=O)O)NC(=O)[C@@H](NC(=O)[C@H](CO)NC(=O)[C@@H](NC(=O)[C@@H]1CCCN1C(=O)[C@@H]1CCCN1C(=O)CNC(=O)[C@@H]1CCC(=O)N1)[C@@H](C)CC)[C@@H](C)CC)C(C)C)C(C)C)[C@@H](C)CC)[C@@H](C)CC)[C@@H](C)O)C(N)=O [compound 372] | 13% | 100% | – | –
3 | CC[C@H](C)[C@H](NC(=O)[C@@H](NC(=O)[C@H](CC(=O)O)NC(=O)[C@H](CC(C)C)NC(=O)[C@H](CC(C)C)NC(=O)[C@H](CC(C)C)NC(=O)[C@H](CCCNC(=N)N)NC(=O)[C@H](CC(N)=O)NC(=O)[C@H](CC(N)=O)NC(=O)[C@H](C)NC(=O)[C@H](C)NC(=O)[C@H](CCC(N)=O)NC(=O)[C@H](CCC(N)=O)NC(=O)[C@H](CCCCN)NC(=O)[C@H](CCC(=O)O)NC(=O)[C@H](CCCCN)NC(=O)[C@H](CCC(=O)O)NC(=O)[C@H](CCC(N)=O)NC(=O)[C@H](CCCCN)NC(=O)[C@H](CCC(=O)O)NC(=O)[C@@H](NC(=O)[C@H](CCC(=O)O)NC(=O)[C@@H](NC(=O)[C@H](CCSC)NC(=O)[C@H](CCCCN)NC(=O)[C@H](CCCNC(=N)N)NC(=O)[C@H](CC(C)C)NC(=O)[C@H](CC(C)C)NC(=O)[C@H](CCC(N)=O)NC(=O)[C@H](Cc1ccc(O)cc1)NC(=O)[C@@H]1CCCN1C(=O)[C@H](CC(C)C)NC(=O)[C@H](CC(=O)O)NC(=O)[C@@H](NC(=O)[C@H](CO)NC(=O)[C@@H](NC(=O)[C@@H]1CCCN1C(=O)[C@@H]1CCCN1C(=O)CNC(=O)[C@@H]1CCC(=O)N1)[C@@H](C)CC)[C@@H](C)CC)[C@@H](C)CC)[C@@H](C)CC)[C@@H](C)O)C(N)=O [compound 202] | 100% | 99% | – | –
4 | CC[C@H](C)[C@H](NC(=O)[C@H](CCC(=O)O)NC(=O)[C@@H](NC(=O)[C@@H](NC(=O)[C@H](CCCCN)NC(=O)[C@H](CCCNC(=N)N)NC(=O)[C@H](CC(C)C)NC(=O)[C@H](CC(C)C)NC(=O)[C@H](CCC(N)=O)NC(=O)[C@H](Cc1ccccc1)NC(=O)[C@@H]1CCCN1C(=O)[C@H](CC(C)C)NC(=O)[C@H](CC(=O)O)NC(=O)[C@@H](NC(=O)[C@H](CO)NC(=O)[C@@H](NC(=O)[C@@H]1CCCN1C(=O)[C@@H]1CCCN1C(=O)CNC(=O)[C@@H]1CCC(=O)N1)[C@@H](C)CC)[C@@H](C)CC)[C@@H](C)O)[C@@H](C)CC)C(=O)N[C@@H](CCC(=O)O)C(=O)N[C@@H](CCCCN)C(=O)N[C@@H](CCC(N)=O)C(=O)N[C@@H](CCC(=O)O)C(=O)N[C@@H](CCCCN)C(=O)N[C@@H](CCC(=O)O)C(=O)N[C@@H](CCCCN)C(=O)N[C@@H](CCC(N)=O)C(=O)N[C@@H](CCC(N)=O)C(=O)N[C@@H](C)C(=O)N[C@H](C(=O)N[C@H](C(=O)N[C@@H](CC(N)=O)C(=O)N[C@@H](C)C(=O)N[C@@H](CCCNC(=N)N)C(=O)N[C@@H](CC(C)C)C(=O)N[C@@H](CC(C)C)C(=O)N[C@@H](CC(=O)O)C(=O)N[C@@H](CCCNC(=N)N)C(=O)N[C@H](C(N)=O)C(C)C)[C@@H](C)O)[C@@H](C)O [compound 321] | 33.8% | 86.8% | – | –
5 | CC[C@H](C)[C@H](NC(=O)[C@H](CCCNC(=N)N)NC(=O)[C@H](C)NC(=O)[C@H](CC(C)C)NC(=O)[C@H](CC(C)C)NC(=O)[C@H](CCCNC(=N)N)NC(=O)[C@H](C)NC(=O)[C@H](CC(N)=O)NC(=O)[C@H](CC(N)=O)NC(=O)[C@H](C)NC(=O)[C@H](C)NC(=O)[C@H](CCC(N)=O)NC(=O)[C@H](CCC(N)=O)NC(=O)[C@H](CCCCN)NC(=O)[C@H](CCC(=O)O)NC(=O)[C@H](CCCCN)NC(=O)[C@H](CCC(=O)O)NC(=O)[C@H](CCC(N)=O)NC(=O)[C@H](CCCCN)NC(=O)[C@H](CCC(=O)O)NC(=O)[C@@H](NC(=O)[C@H](CCC(=O)O)NC(=O)[C@@H](NC(=O)[C@H](CCSC)NC(=O)[C@H](CCCCN)NC(=O)[C@H](CCCNC(=N)N)NC(=O)[C@H](CC(C)C)NC(=O)[C@H](CC(C)C)NC(=O)[C@@H](NC(=O)[C@H](CCC(N)=O)NC(=O)[C@@H]1CCCN1C(=O)[C@H](CC(C)C)NC(=O)[C@H](CC(=O)O)NC(=O)[C@@H](NC(=O)[C@H](CO)NC(=O)[C@@H](NC(=O)[C@@H]1CCCN1C(=O)[C@@H]1CCCN1C(=O)CNC(=O)[C@@H]1CCC(=O)N1)[C@@H](C)CC)[C@@H](C)CC)[C@@H](C)CC)[C@@H](C)CC)[C@@H](C)CC)C(N)=O [compound 285] | 11.1% | 97.1% | ≥ 1000 nM | 14 nM
6 | CC[C@H](C)[C@H](NC(=O)[C@@H](NC(=O)[C@H](C)NC(=O)[C@H](CC(C)C)NC(=O)[C@H](CC(C)C)NC(=O)[C@H](CC(C)C)NC(=O)[C@H](C)NC(=O)[C@H](CC(N)=O)NC(=O)[C@H](CC(N)=O)NC(=O)[C@H](C)NC(=O)[C@H](C)NC(=O)[C@H](CCC(N)=O)NC(=O)[C@H](CCC(N)=O)NC(=O)[C@H](CCCCN)NC(=O)[C@H](CCC(=O)O)NC(=O)[C@H](CCCCN)NC(=O)[C@H](CCC(=O)O)NC(=O)[C@H](CCC(N)=O)NC(=O)[C@H](CCCCN)NC(=O)[C@H](CCC(=O)O)NC(=O)[C@@H](NC(=O)[C@H](CCC(=O)O)NC(=O)[C@@H](NC(=O)[C@H](CCSC)NC(=O)[C@H](CCCCN)NC(=O)[C@H](CCCNC(=N)N)NC(=O)[C@H](CC(C)C)NC(=O)[C@H](CC(C)C)NC(=O)[C@H](Cc1ccccc1)NC(=O)[C@@H](NC(=O)[C@@H]1CCCN1C(=O)[C@H](CC(C)C)NC(=O)[C@H](CC(=O)O)NC(=O)[C@@H](NC(=O)[C@H](CO)NC(=O)[C@@H](NC(=O)[C@@H]1CCCN1C(=O)[C@@H]1CCCN1C(=O)CNC(=O)[C@@H]1CCC(=O)N1)[C@@H](C)CC)[C@@H](C)CC)[C@@H](C)CC)[C@@H](C)CC)[C@@H](C)CC)[C@@H](C)O)C(N)=O [compound 298] | 20.1% | 98.8% | ≥ 1000 nM | 82 nM
